Measured values as given in patent publication US20220204495A1, “INHIBITING TRABID” (Valo Health, Inc., priority 2019, published 2022).

The chains behind the UniProt entries cited, without tags or fusion partners. Residues count along the entry.
UniProt Q9UGI0, 245-697 limits assumed: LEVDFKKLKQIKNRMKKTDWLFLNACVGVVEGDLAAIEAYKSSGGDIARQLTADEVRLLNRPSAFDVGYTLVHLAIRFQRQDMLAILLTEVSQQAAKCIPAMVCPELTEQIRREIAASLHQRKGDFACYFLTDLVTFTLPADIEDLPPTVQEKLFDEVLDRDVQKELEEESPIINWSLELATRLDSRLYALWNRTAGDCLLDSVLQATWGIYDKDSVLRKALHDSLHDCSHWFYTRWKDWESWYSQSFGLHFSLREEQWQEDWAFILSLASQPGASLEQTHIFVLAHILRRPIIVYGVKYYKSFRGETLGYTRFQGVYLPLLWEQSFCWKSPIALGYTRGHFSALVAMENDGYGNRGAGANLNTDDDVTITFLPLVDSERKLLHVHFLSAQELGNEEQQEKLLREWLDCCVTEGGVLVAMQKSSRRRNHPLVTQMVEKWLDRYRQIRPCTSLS

Molecular target: TRABID(245-697) (Homo sapiens, UniProt Q9UGI0)
Experiment: TRABID inhibition biochemical assay (Ub-Rh110MP fluorescence)
Conditions: read-out: TRABID IC50; 10 nM TRABID(245-697), 25 nM Ub-Rh110MP, 30 minutes preincubation with compound, 10-point 3-fold series 26.6 μM to 1.35 nM
Protocol: TRABID enzymatic assays were performed in a final volume of 6 μL in buffer containing 20 mM Tris-HCl pH 8.0, (Corning 46-031-CM), and 1 mM GSH (Sigma, G4251), 0.03% BGG (Sigma, G7516), and 0.01% Triton X-100 (Sigma, 93443). Test compounds were serially diluted in DMSO (Sigma, G7516) to obtain 10-point, 3-fold series. Nanoliter quantities were pre-dispensed into 1536 assay plates (Corning, 9110BC) for the concentration response range, 26.6 μM to 1.35 nM. 3 μL of 2× enzyme was added to the assay plates, preincubated with compound for 30 minutes and then 3 μL of 2× substrate was added to initiate the reaction (10 nM TRABID(245-697) and 25 nM Ub-Rh110MP (UbiQ, UbiQ-126) final concentrations). Enzyme and substrate concentrations and incubation times were optimized for the maximal signal-to-background while maintaining linear initial velocity conditions at a fixed substrate concentration below Km.
Fluorescence signal was measured on an EnVision Plate Reader (PerkinElmer) equipped with 485 nm excitation filter and 535 nm emission filters.
Rates were calculated by: rate=((final FLU−initial FLU)/600 seconds) where final FLU=fluorescence at time 10 minutes, initial FLU=fluorescence at time 0 minutes and 600=duration of reaction in seconds.
Data were reported as percent inhibition compared with control wells based on the following equation: % inh=[…] where rate=measured rate of fluorescence generated during assay, AveLow=average rate of no enzyme control (n=32), and AveHigh=average rate of DMSO control (n=32).
IC50 values were determined by curve fitting of the standard 4 parameter logistic fitting algorithm included in the Activity Base software package (IDBS) using XE Designer equation Model 205. Data were fitted using the Levenburg Marquardt algorithm.

Row | Compound | IC50 [µM]
1 | Cc1ccc(-c2cc(C(=O)N3CCC[C@H](CNC#N)C3)[nH]n2)cc1 | 5.21
2 | Cc1ccc(-c2cc(C(=O)N3C[C@@H]4[C@H](C3)[C@H]4NC#N)[nH]n2)cc1 | 7.76
3 | COc1ccc(-c2cc(C(=O)N3CCO[C@@H](CNC#N)C3)[nH]n2)cc1 | 8.49
4 | COc1ccc(-c2cc(C(=O)N3C[C@@H]4[C@H](C3)[C@H]4NC#N)[nH]n2)cc1 | 6.51
5 | Cc1ccc(-c2cc(C(=O)N3CC[C@H](CNC#N)C3)[nH]n2)cc1 | 4.53
6 | COc1cccc(-c2cc(C(=O)N3C[C@@H]4[C@H](C3)[C@H]4NC#N)[nH]n2)c1 | 6.16
7 | COc1ccc(-c2cc(C(=O)N3CC[C@@]4(CC4NC#N)C3)[nH]n2)cc1 (some centres unmarked) | 5.47
8 | COc1ccc(-c2cc(C(=O)N3CCC[C@H](CNC#N)C3)[nH]n2)cc1 | 8.93
9 | COc1ccc(-c2cc(C(=O)N3CC[C@H](CNC#N)C3)[nH]n2)cc1 | 2.96
10 | COc1cccc(-c2cc(C(=O)N3CC[C@H](CNC#N)C3)[nH]n2)c1 | 3.48
11 | Cc1ccc(-c2cc(C(=O)N3CC[C@@]4(CC4NC#N)C3)[nH]n2)cc1 (some centres unmarked) | 5.05
